{
  "source": "patent US10668029B2",
  "about": "“Compositions containing non-polar compounds” (VIRUN, INC., priority 2008, dated 2020)",
  "origin": "cited, not measured here",
  "data": [
    {"conditions": "hydrophilic-lipophilic balance value", "values": [
      {"substance": "PEG-2 Hydrogenated Castor Oil", "HLB": 1.7},
      {"substance": "PEG-25 Hydrogenated Castor Oil", "HLB": 10.8},
      {"substance": "PEG-35 Castor Oil", "HLB": 12.5},
      {"substance": "Pluronic F68", "HLB": 29}
    ]}
  ]
}
